Source: patent publication US6638509B1, “Toxin conjugates” (Kyowa Hakko Kogyo, Co., Ltd., priority 1995, dated 2003)
Like-named read-outs stand apart in the source and are kept apart here.

Amino acid sequences for entries named in this document (tags omitted). Residues count along the entry.
UniProt P00800, 233-548, species assumed: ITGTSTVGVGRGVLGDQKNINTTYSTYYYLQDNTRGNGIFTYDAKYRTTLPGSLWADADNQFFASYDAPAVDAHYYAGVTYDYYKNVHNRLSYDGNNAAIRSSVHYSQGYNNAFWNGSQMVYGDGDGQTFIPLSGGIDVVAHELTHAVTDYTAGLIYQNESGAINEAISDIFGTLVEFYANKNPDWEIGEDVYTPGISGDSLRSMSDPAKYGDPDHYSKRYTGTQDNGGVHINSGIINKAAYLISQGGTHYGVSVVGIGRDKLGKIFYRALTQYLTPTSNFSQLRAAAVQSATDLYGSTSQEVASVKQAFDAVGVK

How the values were obtained:
[1] = tested on: proline endopeptidase; conditions: 37° C., 24 hours
[2] = molecular target: thermolysin (Bacillus thermoproteolyticus, UniProt P00800); conditions: 37° C.

With HO-PEG-Gly-Pro-ADM [Compound (XI-3)] the cleavage efficiency [1] was 50%.

“BzlO-PEG-Ala-Val-Compound (12) [Compound (X-1)]” gave a cleavage efficiency ([2]; 5 hours) of 78%.

HO-PEG-Ala-Val-ADM [Compound (XI-1)] showed a cleavage efficiency ([2]; 24 hours) of 100%.
